Here are results for one substance from patent US20260248894A1, “COMBINATION THERAPY FOR PRETERM INFANTS” (Oak Hill Bio Ltd, priority 2022, published 2026).

Sequences of proteins named here, by UniProt entry; tags and fusion partners are left off. Residues count along the entry.
UniProt P05019, 49-118 limits assumed, stated change not applied: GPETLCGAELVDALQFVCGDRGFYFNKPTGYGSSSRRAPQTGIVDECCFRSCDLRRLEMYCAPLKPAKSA
UniProt P17936, 28-291, stated change not applied: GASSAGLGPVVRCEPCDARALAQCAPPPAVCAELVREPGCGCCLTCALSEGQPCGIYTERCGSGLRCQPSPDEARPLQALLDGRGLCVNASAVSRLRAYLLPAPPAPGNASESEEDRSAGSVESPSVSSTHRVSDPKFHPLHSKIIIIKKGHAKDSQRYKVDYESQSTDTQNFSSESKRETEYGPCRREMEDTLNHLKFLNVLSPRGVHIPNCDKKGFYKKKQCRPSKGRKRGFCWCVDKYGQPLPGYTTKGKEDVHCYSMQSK

This data set concerns the target T1, rhIGF-1/rhIGFBP-3 drug product (Homo sapiens, UniProt P05019+P17936, DEL119-195).
T1 construct: purchased Takeda, Lexington, MA, USA
Kind of data set: In vitro physical compatibility of test medications mixed with rhIGF-1/rhIGFBP-3 (visual observation, OD320, pH, osmolality). More on the design: key to Physical compatibility: Yes: Test medications were considered physically compatible with rhIGF-1/rhIGFBP-3 if there was no observed change in color, precipitation, turbidity, or gas evolution, or if there was no clinically relevant change in osmolality or pH. The data set is classed as physicochemical.

Consider Gentamicin, for which, for the setting “conditions and doses tested”, the “physical compatibility with rhIGF-1/rhIGFBP-3” value is given as “physical compatibility was established”. In addition, the osmolality decrease result (highest dose of 5 mg/kg/30 min) is “Osmolality decrease of ~74% was observed”. Besides, for the setting “mixed with rhIGF-1/rhIGFBP-3 drug product at representative clinical doses, room temperature”, the Physical compatibility result is listed as “Yes”.
